The values that follow are results of earlier work, collected in paper PMC4141160, “Peptide Inhibitor of Complement C1, a Novel Suppressor of Classical Pathway Activation: Mechanistic Studies and Clinical Potential” (Frontiers in Immunology, 2014).

Sequences of proteins named here, by UniProt entry; tags and fusion partners are left off. Residues count along the entry.
UniProt P00736, 18-705, chain 1 of 2: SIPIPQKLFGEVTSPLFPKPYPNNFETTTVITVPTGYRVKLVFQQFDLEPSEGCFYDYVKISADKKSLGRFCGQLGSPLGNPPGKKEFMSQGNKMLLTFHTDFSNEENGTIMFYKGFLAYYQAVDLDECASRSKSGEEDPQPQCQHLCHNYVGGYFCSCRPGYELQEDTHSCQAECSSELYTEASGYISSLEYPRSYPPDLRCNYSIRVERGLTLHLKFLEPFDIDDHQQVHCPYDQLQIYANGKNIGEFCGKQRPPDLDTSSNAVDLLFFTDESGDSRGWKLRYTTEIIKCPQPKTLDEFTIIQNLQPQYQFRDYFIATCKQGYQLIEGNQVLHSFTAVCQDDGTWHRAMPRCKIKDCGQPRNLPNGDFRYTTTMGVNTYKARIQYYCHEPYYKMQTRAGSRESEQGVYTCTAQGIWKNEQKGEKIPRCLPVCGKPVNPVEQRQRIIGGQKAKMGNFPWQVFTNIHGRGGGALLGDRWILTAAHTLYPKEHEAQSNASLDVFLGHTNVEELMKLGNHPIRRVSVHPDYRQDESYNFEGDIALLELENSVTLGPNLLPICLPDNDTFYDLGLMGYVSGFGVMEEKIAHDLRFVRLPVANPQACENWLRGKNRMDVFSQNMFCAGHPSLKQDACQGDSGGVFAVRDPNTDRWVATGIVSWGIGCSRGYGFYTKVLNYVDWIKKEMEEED
UniProt P02745, 23-245: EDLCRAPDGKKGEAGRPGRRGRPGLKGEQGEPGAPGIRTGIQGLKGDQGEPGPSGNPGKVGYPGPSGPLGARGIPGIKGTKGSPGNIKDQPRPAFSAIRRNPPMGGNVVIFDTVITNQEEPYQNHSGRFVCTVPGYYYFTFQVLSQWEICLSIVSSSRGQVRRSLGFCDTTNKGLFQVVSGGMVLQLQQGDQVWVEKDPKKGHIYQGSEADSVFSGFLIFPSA

The target in this data set is C1s-C1r-C1r-C1s (Homo sapiens) (UniProt P00736). Briefly: SPR.

C1q (from UniProt P02745): the Kd is 2.72 nM.

As usually defined, the Kd is a measure of binding affinity in units of concentration.
